In ChEMBL document CHEMBL1131579, “Nitroaromatic amino acids as inhibitors of neuronal nitric oxide synthase” (J Med Chem, 1998):
pIC50: −log10 of the molar value.

Target: T1, Nitric oxide synthase 3 (Bos taurus, UniProt P29473)
T1 sequence (P29473 whole entry): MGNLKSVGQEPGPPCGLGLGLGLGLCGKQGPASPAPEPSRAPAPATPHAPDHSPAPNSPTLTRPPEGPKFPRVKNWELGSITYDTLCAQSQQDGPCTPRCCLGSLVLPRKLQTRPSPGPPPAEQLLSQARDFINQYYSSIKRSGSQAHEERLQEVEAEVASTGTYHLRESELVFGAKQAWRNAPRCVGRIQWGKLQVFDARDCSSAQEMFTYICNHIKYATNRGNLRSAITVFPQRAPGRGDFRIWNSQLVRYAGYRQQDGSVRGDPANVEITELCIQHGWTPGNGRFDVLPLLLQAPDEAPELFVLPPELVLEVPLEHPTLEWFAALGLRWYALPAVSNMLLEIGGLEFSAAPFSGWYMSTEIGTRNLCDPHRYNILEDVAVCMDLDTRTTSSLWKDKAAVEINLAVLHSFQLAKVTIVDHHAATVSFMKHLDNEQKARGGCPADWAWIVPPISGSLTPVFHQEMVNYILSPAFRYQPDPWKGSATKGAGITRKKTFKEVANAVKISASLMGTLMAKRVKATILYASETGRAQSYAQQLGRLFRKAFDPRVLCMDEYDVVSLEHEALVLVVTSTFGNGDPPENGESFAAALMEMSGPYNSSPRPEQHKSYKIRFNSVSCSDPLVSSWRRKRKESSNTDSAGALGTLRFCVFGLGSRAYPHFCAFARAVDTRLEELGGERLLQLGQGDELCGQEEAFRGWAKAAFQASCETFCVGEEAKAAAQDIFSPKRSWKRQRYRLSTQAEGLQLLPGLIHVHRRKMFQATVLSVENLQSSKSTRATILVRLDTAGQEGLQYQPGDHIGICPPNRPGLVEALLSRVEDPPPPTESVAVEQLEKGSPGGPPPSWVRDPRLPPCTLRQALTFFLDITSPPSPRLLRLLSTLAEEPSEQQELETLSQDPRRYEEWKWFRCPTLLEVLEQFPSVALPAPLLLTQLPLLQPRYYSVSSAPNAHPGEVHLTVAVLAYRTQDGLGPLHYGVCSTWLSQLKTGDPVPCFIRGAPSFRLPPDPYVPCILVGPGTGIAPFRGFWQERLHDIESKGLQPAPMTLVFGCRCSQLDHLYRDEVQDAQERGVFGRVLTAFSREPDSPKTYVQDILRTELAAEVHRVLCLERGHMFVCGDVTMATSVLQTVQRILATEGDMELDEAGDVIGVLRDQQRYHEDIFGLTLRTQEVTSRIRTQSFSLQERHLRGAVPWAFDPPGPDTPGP
Assay: Inhibitory activity of conversion of radiolabeled arginine to citrulline by isomeric form of nitric oxide synthase Endothelial nitric oxide synthase from cultured bovine aortic endothelial cells
Type: cell-based, Endothelial cell
Procedure, shortened: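 eNOS taken from the CHAPS-solubilized particulate fraction of cultured bovine aortic endothelial cells. Incubated 20 min at ambient temperature with 10 μM L-[2,3-3H]arginine, 1 mM NADPH, 2 mM CaCl2 and graded inhibitor. Stopped at pH 5.5 with EGTA/EDTA; [3H]citrulline isolated on cation-exchange column and counted by scintillation. IC50.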

pIC50: 5.15
SMILES: CNC(=N)NCCC[C@H](N)C(=O)O [TILARGININE]
